This is an account of results in patent US7316928B2, “Plant fatty acid amide hydrolases” (The University of North Texas, priority 2003, dated 2008).

The chains behind the UniProt entries cited, without tags or fusion partners.
UniProt Q7XJJ7, whole entry: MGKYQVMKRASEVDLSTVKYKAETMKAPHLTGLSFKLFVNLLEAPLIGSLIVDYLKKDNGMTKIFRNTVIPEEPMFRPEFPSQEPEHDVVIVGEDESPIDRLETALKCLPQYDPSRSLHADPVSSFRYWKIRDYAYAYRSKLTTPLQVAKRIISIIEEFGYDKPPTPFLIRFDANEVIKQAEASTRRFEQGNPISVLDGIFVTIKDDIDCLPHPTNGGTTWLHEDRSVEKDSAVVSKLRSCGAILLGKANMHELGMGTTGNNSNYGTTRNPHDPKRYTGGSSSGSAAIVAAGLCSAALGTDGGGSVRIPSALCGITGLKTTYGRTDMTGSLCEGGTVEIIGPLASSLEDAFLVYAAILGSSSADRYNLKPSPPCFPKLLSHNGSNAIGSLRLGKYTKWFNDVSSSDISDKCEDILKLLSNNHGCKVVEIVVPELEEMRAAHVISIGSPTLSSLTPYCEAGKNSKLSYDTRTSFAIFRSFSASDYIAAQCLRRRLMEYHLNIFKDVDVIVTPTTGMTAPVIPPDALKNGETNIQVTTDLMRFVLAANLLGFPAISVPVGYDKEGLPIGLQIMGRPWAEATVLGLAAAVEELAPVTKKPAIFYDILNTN

Read-outs that look alike come from different tables or passages of the source.

The target of this assay is Arabidopsis NAE amidohydrolase (FAAH) (Arabidopsis thaliana, UniProt Q7XJJ7). As to conditions: for Specific Activity: 30 min at 30° C.

For the molecule `CCCCC/C=C\C/C=C\C/C=C\C/C=C\CCCCOP(=O)(F)OC` (stereo not shown), the “Specific Activity” value is given as 9.69 ± 0.89 μmol h^−1 mg^−1 Protein (0.1 nM inhibitor), 5.62 ± 0.56 μmol h^−1 mg^−1 Protein (1 nM inhibitor) and 0.00 ± 0.00 μmol h^−1 mg^−1 Protein (10 nM inhibitor). Further, for the setting “10 nM inhibitor”, the “effect on NAE hydrolysis by the Arabidopsis enzyme” value is “completely eliminated”.
